Patent US6357163B1, “Use of nucleic acid analogues in diagnostics and analytical procedures” (priority 1991, dated 2002)

Test system: 5′-AAA-AGA-AGA-A
Assay: Melting temperature (Tm) of hybrid with oligodeoxyribonucleotide
Assay type: binding
Settings: oligo 7 (5′-AAA-AGA-AGA-A); 10 mM phosphate, 1 mM EDTA, 140 mM NaCl, pH 7.2
Text: 2. Upon formation of DNA duplexes (dsDNA) from single strand DNA, the extinction coefficient decreases (hypochromicity). Thus, the denaturing of DNA can be followed by measuring changes in the absorbance, for example, as a function of […], the temperature where 50% of a duplex has disappeared to give single strands.
Duplexes were formed from the single-stranded oligodeoxyribonucleotides and the PNAs listed below. Typically 0.3 OD260 of the T-rich strand was hybridized with 1 equivalent of the other strand by heating to 90° C. for 5 min, cooling to room temperature and kept for 30 min and finally stored in a refrigerator at 5° C. for at least 30 min. The buffers used were all 10 mM in phosphate and 1 mM in EDTA. The low salt buffer contained no sodium chloride, whereas the medium salt buffer contained 140 mM NaCl and the high salt buffer 500 mM NaCl. The pH of all the buffers was 7.2. The melting temperature of the hybrids were determined on a Gilford Response apparatus. The following extinction coefficients were used A: 15.4 ml/μmol.cm; T: 8.8; G: 11.7 and C: 7.3 for both normal oligonucleotides and PNA. The melting curves were recorded in steps of 0.5 C/min. The Tm were determined from the maximum of the 1st derivative of the plot of A260 vs temperature.
7. 5′-AAA-AGA-AGA-A (See SEQ ID NO:13)

5′-TTC-TTC-TTT-T
Tm, Medium Salt: 23.0 °C
